From ChEMBL document CHEMBL5029174, “Discovery of structurally distinct tricyclic M4 positive allosteric modulator (PAM) chemotypes - Part 2” (Bioorg Med Chem Lett, 2021)
Calls of active or inactive are those of the source. No cut-off for these calls is given here.

Chains of the proteins cited; added tags and fusions are not shown.
UniProt P08173, whole entry: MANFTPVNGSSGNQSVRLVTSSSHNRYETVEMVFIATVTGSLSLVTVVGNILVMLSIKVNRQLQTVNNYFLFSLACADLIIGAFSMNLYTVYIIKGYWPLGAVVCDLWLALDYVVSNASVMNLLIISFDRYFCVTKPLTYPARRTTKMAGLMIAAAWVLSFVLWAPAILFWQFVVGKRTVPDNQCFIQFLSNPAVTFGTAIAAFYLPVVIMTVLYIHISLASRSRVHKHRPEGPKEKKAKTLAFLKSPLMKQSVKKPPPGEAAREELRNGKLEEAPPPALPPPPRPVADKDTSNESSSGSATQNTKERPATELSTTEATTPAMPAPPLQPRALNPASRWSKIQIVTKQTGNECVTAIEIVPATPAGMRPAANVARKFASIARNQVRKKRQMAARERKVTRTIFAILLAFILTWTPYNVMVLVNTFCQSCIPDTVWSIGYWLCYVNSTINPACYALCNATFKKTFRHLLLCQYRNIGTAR

These compounds were tested against Muscarinic acetylcholine receptor M4 (Homo sapiens, UniProt P08173) (assay: Positive allosteric modulation of human muscarinic acetylcholine M4/Gqi5 receptor expressed in CHO cells in presence of acetylcholine at EC20 concentration by calcium mobilization assay relative to control).
Type: functional, cell-based
Procedure, shortened: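 CHO cells stably expressing human M4 with a chimeric Gq protein were tested by calcium mobilization in the presence of an EC20 fixed concentration of acetylcholine. EC50 values come from concentration-response curves. Efficacy is given as % of the maximal acetylcholine response. Each value is n = 1 independent experiment run in triplicate.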

| Compound | %max |
| --- | --- |
| Cc1cc(C)c2c(n1)oc1c(N3CCCC3)ncnc12 | inactive |
| Cc1ccc(CNc2ncnc3c2sc2nc(C)cc(C)c23)c(F)c1 | inactive |
| Cc1cc(C)c2c(n1)sc1c(NCc3ccc(OC(F)(F)F)cc3)ncnc12 | inactive |
| Cc1cc(C)c2c(n1)oc1c(NC3CN(c4ncc(C(F)(F)F)cn4)C3)ncnc12 | inactive |
| Cc1cc(C)c2c(n1)oc1c(NCc3ccc(C(C)(C)O)cc3)ncnc12 | inactive |
| COc1ccc(CNc2ncnc3c2oc2nc(C)cc(C)c23)cc1F | inactive |
| Cc1cc(C)c2c(n1)sc1c(NCc3ccc4sccc4c3)ncnc12 | inactive |
| Cc1cc(C)c2c(n1)sc1c(C3CCN(CC4CC4)CC3)ncnc12 | inactive |
| Cc1cc(C)c2c(n1)sc1c(NCc3ccc(C(F)(F)F)cn3)ncnc12 | inactive |
| Cc1cc(C)c2c(n1)sc1c(C3CCN(c4cncc(F)c4)CC3)ncnc12 | inactive |
| Cc1cc(C)c2c(n1)sc1c(NCc3ccc(F)c(Cl)c3)ncnc12 | inactive |
